This assay concerns the target Mu-type opioid receptor (Homo sapiens, UniProt P35372). The assay can be described thus: Intrinsic activity at human mu opioid receptor expressed in CHO cells by [35S]GTPgammaS binding assay. The class given is functional, cell-based. (In general: GTPγS resists hydrolysis and so accumulates on activated G proteins.)

By UniProt entry, the sequences of proteins in these tests, tags left out.
UniProt P35372, whole entry: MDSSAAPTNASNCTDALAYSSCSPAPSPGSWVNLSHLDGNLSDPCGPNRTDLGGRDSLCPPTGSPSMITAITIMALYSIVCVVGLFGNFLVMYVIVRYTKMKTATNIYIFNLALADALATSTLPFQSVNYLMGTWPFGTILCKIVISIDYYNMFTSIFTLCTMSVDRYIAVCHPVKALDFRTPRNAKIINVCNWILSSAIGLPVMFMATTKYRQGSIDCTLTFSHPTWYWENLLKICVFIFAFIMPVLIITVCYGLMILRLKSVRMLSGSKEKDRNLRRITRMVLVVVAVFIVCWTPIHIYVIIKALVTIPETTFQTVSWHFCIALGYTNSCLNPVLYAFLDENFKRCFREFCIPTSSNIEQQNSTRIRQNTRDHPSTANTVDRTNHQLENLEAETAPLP

Results on one molecule are retold here after ChEMBL document CHEMBL3085655, “4β-Methyl-5-(3-hydroxyphenyl)morphan opioid agonist and partial agonist derived from a 4β-methyl-5-(3-hydroxyphenyl)morphan pure antagonist” (J Med Chem, 2013).

Molecules are shown by their SMILES.

In the case of `C[C@@H]1CN(CCCc2ccccc2)[C@@H]2CCC[C@]1(c1cccc(O)c1)C2`, the Intrinsic activity was over 5 µM.
